System: METH-sensitized rats
Test: Reversal of METH-induced behavioral sensitization by 5-HT2A/2C antagonists (motor activity after acute METH challenge)
Conditions: rat, in vivo
From the text: Automation of observational evaluations was accomplished using computerized small animal monitors (AccuScan Instr. Inc., Columbus, Ohio). […] One feature of drug-induced behavioral sensitization is heterogeneity of motor responses and the AccuScan monitors quantify numerous behavioral indices. This is a critical point for the motor profile is exquisitely related to METH dose, the drug history of the rat and observation time. After 3- or 31-days of withdrawal from repeated METH injections, rats were allowed to achieve baseline motor activity with a 30 min habituation period, challenged with 1 mg/kg sc METH and monitored for 90 min. As shown in FIGS. 1a-b, a “sensitized” motor response was clearly expressed in the METH-pretreatment group to the METH challenge at the 3-day withdrawal period for both Horizontal Activity and Stereotypy Counts (data not shown) and with slight early effects on Vertical Movements.
Multiple 5-HT2A/2C antagonists with differing pharmacological profiles were tested for their ability to ameliorate METH-induced behavioral sensitization when administered after sensitization has developed. […]. The doses were selected based on the antagonists' ability to block 5-HT2A- and 5-HT2C-mediated activity and their pharmacokinetic profiles. […]

In the case of CN1CCN2c3ccccc3Cc3ccccc3C2C1 (stereo not shown) [mianserin], the “METH response on horizontal activity” value is reported as “Some attenuation”.

— patent US20060035889A1, “Treatment for methamphetamine addiction and reduction of methamphetamine use using serotonin antagonists” (priority 2004, published 2006)
